Data published in BindingDB's records for doi:10.1016/0024-3205(76)90375-1 (1976).

Sequences of proteins named here, by UniProt entry; tags and fusion partners are left off.
UniProt P32305, whole entry: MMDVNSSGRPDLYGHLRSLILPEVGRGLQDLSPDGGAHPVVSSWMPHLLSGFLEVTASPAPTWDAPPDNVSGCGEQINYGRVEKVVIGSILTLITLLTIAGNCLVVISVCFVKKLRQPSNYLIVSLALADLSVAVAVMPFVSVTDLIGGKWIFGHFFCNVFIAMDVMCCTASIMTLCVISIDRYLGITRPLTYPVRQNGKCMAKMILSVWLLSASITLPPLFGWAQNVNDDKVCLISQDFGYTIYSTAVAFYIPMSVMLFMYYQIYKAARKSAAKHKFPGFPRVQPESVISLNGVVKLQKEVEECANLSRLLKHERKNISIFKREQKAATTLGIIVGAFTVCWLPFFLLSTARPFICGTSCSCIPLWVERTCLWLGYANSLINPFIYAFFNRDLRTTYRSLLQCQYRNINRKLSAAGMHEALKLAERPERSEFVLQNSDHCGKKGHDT

Target: 5-hydroxytryptamine receptor 7 (Rattus norvegicus, UniProt P32305)

`Clc1cccc(Cl)c1N=C1NCCN1` [2-(2,6-dichloroanilino)-2-imidazoline] was tested, and the Ki was 4.7 nM.
